The values that follow come from ChEMBL document CHEMBL4330064, “Phytoestrogens and their synthetic analogues as substrate mimic inhibitors of CYP1B1” (Eur J Med Chem, 2019).

This test concerns the target T1, Cytochrome P450 1B1 (Homo sapiens, UniProt Q16678).
T1 sequence (Q16678 whole entry): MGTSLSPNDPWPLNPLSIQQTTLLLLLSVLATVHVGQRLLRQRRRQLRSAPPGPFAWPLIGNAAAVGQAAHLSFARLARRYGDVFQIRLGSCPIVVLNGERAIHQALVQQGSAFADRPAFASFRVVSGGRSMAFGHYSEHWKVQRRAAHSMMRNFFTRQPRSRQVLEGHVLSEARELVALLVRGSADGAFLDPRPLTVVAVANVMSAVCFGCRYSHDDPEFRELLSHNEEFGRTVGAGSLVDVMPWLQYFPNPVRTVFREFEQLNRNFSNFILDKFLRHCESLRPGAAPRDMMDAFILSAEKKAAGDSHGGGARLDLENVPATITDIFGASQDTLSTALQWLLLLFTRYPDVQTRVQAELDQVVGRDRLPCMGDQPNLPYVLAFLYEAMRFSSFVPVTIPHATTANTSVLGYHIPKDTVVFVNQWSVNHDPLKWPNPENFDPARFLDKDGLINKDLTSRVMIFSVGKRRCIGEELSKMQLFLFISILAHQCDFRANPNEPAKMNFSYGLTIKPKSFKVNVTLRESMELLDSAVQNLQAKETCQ
Description: Inhibition of human CYP1B1 using ethoxyresorufin as substrate preincubated for 3 mins followed by NADPH addition measured after 10 mins by EROD assay.

For orientation: Ki means the dissociation constant of the complex between target and ligand, obtained from inhibition or displacement. Read a high Ki as lower affinity. Molecule `COc1cc(/C=C/c2ccc(OC)cc2OC)cc(OC)c1` had a Ki of 3 nM.
